Literature values as cited in US8815261B2 (priority 2009, dated 2014).
Read-outs that look alike come from different tables or passages of the source.

O=C1CCc2ccc(OCCCCN3CCN(c4cccc(Cl)c4Cl)CC3)cc2N1 [aripiprazole (free form), 7-{4-[4-(2,3-dichlorophenyl)-1-piperazinyl]butoxy}-3,4-dihydrocarbostyryl, reference compound]
4.6: logP | logP calculated value of organic acid (PubChem value (revised on February, 2009)) | logP calculated value of organic acid (PubChem value, as in Example 2 (Table 4))
